The test has as its target 5HT2C receptors (Homo sapiens, UniProt P28335). As to the kind of experiment: Radioligand saturation binding, CHO cell membranes. Conditions: Example 4. From the text:
Representative curves are in FIGS. 2-4 and KD and Bmax summary in Table 3; values are consistent with literature (Knight et al., 2004).

Amino acid sequences for entries named in this document (tags omitted). Residues count along the entry.
UniProt P28335, 33-458: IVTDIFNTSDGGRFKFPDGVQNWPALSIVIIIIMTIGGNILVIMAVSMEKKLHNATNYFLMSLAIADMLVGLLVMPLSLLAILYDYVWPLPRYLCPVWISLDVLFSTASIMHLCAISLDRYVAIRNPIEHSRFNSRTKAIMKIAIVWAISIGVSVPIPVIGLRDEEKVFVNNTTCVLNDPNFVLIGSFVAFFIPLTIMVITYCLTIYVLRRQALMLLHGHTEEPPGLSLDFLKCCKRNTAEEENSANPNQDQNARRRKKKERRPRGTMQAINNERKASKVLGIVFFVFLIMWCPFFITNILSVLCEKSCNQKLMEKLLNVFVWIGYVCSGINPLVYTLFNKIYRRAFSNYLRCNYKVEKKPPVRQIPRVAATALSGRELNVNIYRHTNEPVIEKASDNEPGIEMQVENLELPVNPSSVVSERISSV

On to [^3H]-mesulergine, for which the Kd (in general, the equilibrium constant for the complex coming apart) amounted to 880 ± 30 pM.

The record behind these values is patent publication US8586634B2, “Therapeutic compounds” (University of Florida Research Foundation, Inc., priority 2007, dated 2013).
